Experimental data: the NIST ThermoML archive (doi:10.1021/je200628n)
± gives the expanded uncertainty stated by the source.

Assay: activity coefficient (dimensionless); of the first substance listed, at infinite dilution; xn = mol fraction of the nth substance listed
Conditions: 101 kPa, Liquid, Chromatography, x1 = 0

Which activity coefficient (328.15 K) does the source give for `CCCCOCCCC` [dibutyl ether] + NCCCCCCCCN here?
Its activity coefficient is 8.79 ± 0.45.

What about the activity coefficient (338.15 K) of the same compound?
Its activity coefficient is 7.79 ± 0.4.

What about the activity coefficient (343.15 K) of the same compound?
The activity coefficient was 7.42 ± 0.38.

And the activity coefficient (348.15 K)?
Its activity coefficient is 7.18 ± 0.37.

For `CCCCOCCCC` [dibutyl ether] + NCCCCCCCCCCCCN, which activity coefficient (348.25 K) is on record?
Its activity coefficient is 8.93 ± 0.46.

What about the activity coefficient (353.15 K) of the same compound?
The activity coefficient was 8.47 ± 0.44.

And the activity coefficient (358.25 K)?
Its activity coefficient is 7.9 ± 0.41.

What about the activity coefficient (363.21 K) of the same compound?
The activity coefficient was 7.45 ± 0.38.

With `CCCCOCCCC` [dibutyl ether] + NCCCCCCCCCCN as the compound, how does the activity coefficient (338.2 K) read?
Its activity coefficient is 7.94 ± 0.41.

What about the activity coefficient (348.15 K) of the same compound?
The activity coefficient was 7.5 ± 0.39.

And the activity coefficient (353.22 K)?
The activity coefficient was 7.39 ± 0.38.
